Measurements taken from paper PMC4631455, “FireProt: Energy- and Evolution-Based Computational Design of Thermostable Multiple-Point Mutants” (PLoS Computational Biology, 2015).

Assays:
[1] = molecular target: haloalkane dehalogenase DhaA (DhaAwt) (Rhodococcus rhodochrous, UniProt P0A3G2); conditions: 37°C, 100 mM glycine buffer pH 8.6; Hill coefficient model with substrate inhibition; substrate inhibition constant
[2] = system: CCCCCCI; experiment: purified protein
[3] = 57°C, 100 mM glycine buffer pH 8.6, Hill coefficient model, mutant DhaA115, 57.0 °C

CCCCCCI [1-iodohexane]
K si [1]: 0.53 ± 0.01 mM

haloalkane dehalogenase DhaA (DhaAwt) (Rhodococcus rhodochrous; A155P/A172I/C128F/C176F/C262L/D198W/D266F/E20S/F80R/T148L/V219W)
K0.5 [2, 3]: 5.00 ± 2.31 µM | kcat [2, 3]: 2.85 s⁻¹

haloalkane dehalogenase DhaA (DhaAwt) (Rhodococcus rhodochrous)
K0.5 ([2]; 37°C, 100 mM glycine buffer pH 8.6, Hill coefficient model with substrate inhibition): 12.00 ± 1.14 µM
